Test results as given in patent publication US20250163119A1, “COMPOUNDS FOR THE TREATMENT OF DIABETES OR OBESITY” (Eli Lilly and Company, priority 2023, published 2025).

Key:
Type in all cases: cell-based
[1] = biological target: T1, CRHR1 receptor (Y79 cells) (Homo sapiens, UniProt P34998); test: Human Y79 cAMP assay (native cell line expressing endogenous CRHR1); settings: human Y79 cells (CRHR1, no detectable CRHR2); mean ± SE
T1 construct: host or cells: Y79 human retinoblastoma cells
T1 sequence (P34998 24-415): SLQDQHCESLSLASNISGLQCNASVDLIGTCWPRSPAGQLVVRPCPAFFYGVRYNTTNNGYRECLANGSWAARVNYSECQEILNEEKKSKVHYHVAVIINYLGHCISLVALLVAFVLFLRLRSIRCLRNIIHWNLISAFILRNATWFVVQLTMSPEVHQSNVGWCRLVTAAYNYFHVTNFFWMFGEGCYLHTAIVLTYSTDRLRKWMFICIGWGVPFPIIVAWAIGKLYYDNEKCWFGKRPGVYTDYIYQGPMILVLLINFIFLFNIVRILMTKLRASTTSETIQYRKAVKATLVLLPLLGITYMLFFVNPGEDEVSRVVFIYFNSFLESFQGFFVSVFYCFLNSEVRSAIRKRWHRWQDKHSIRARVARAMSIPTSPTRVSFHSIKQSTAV
Method: Y79 cells, a human retinoblastoma cell line, express a high level of human CRHR1 with no detectable CRHR2. A7r5 cells, a rat aortic smooth muscle cell line, only express CRHR2 receptor with no detectable CRHR1. The rat CRHR2 gene shares 93% homology of nucleotides sequences with human CRHR2 and responds to human UCN2. Therefore, these two native cell lines were used for additional characterization of polypeptide selectivity.
Y79 cells were grown in a suspension culture as recommended by ATCC in the media containing RPMI (Gibco Cat #11875093) and 20% FBS (Gibco dialyzed Cat #26400044). Y79 cells were incubated at 37° C. with 5% CO2. A subcultivation was performed by removing the supernatant after centrifugation and suspending the cell pellet in fresh medium (A subcultivation ratio was 1:5). […]
(§1) The amount of intracellular cAMP was quantitated using HTRF technology (Homogeneous Time Resolved Fluorescence; Cisbio) as per vendor instructions. […] The HTRF signal was immediately detected using an Envision plate reader (Perkin-Elmer) to calculate the ratio of fluorescence at 665 to 620 nm. […]
Raw fluorescence data for concentration curves of the peptides in Table 2 and Table 3 were converted to cAMP amount (pmol/well) using a cAMP standard curve generated for each experiment.

human CRHR2 = biological target: T2, human CRHR2 (Homo sapiens, UniProt Q13324); test: Human CRHR2 cAMP assay (HTRF) in HEK293 cells stably expressing human CRHR2; settings: HEK293 cells overexpressing human CRHR2; relative EC50, maximum 10 nM human UCN2; mean ± SE; read-out: hCRHR2 cAMP EC50 (pM, ± SE)
T2 construct: expressed in transfected cells
T2 sequence (Q13324 1-438 isoform Q13324-2): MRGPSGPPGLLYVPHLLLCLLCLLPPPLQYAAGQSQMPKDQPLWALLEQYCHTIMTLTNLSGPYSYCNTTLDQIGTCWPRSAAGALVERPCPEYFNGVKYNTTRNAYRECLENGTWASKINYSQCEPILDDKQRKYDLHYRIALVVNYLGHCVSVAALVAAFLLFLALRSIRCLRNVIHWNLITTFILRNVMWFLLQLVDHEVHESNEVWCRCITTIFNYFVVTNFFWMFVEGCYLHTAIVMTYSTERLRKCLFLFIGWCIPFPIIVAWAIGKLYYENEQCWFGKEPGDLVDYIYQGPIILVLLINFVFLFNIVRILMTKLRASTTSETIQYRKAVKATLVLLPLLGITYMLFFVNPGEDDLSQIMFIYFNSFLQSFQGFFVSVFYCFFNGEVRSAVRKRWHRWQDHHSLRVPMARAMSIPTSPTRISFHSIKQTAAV
Method: (§2) The corticotropin-releasing hormone (CRH) receptor 1 and 2 (CRHR1 and CRHR2) are GPCRs that were functionally coupled to Gs proteins. Stimulation of these receptors results in an increased production of intracellular cAMP, which can be detected using standard in vitro technologies. In vitro activity of peptides was measured by the amount of cAMP formed in human CRHR1 and CRHR2 overexpressed cells.
(§3) Human CRHR1 and CRHR2 receptors were stably expressed in human embryonic kidney cells (HEK293) under control of a pcDNA expression vector. The HEK293 cell line was cultured in DMEM 1× (Gibco, 93-0152DK) supplemented with 10% FBS, 1 mM sodium pyruvate, 1×MEM NEAA, 1× GlutaMAX and 10 mM HEPES. […] After 20 days under selection, the mRNA levels from different clones were measured to confirm the expression of human CRHR1 and CRHR2 genes. To determine the function of over-expressed CRHR cells, the intracellular cAMP levels in response to human UCN1 and UCN2 were measured and compared to the expression of CRHR1 and CRHR2 mRNA in each clone. […]
as §1

human CRHR1 = biological target: T3, human CRHR1 (Homo sapiens, UniProt P34998); test: Human CRHR1 cAMP assay (HTRF) in HEK293 cells stably expressing human CRHR1; settings: HEK293 cells overexpressing human CRHR1; relative EC50, maximum 66 nM human UCN1; mean ± SE; read-out: hCRHR1 cAMP EC50 (pM, ± SE)
T3 construct: expressed in transfected cells
T3 sequence (P34998 24-415): T1 sequence (P34998 24-415)
Method: as §2, §3, §1

With `CC[C@H](C)[C@H](N)C(=O)N[C@H](C(=O)N[C@@H](CC(C)C)C(=O)N[C@@H](CO)C(=O)N[C@@H](CC(C)C)C(=O)N[C@@H](CC(=O)O)C(=O)N[C@H](C(=O)N1CCC[C@H]1C(=O)N[C@H](C(=O)NCC(=O)N[C@@H](CC(C)C)C(=O)N[C@@H](CC(C)C)C(=O)N[C@@H](CCC(N)=O)C(=O)N[C@H](C(=O)N[C@@H](CC(C)C)C(=O)N[C@@H](CC(C)C)C(=O)N[C@@H](CCC(=O)O)C(=O)N[C@@H](CCC(N)=O)C(=O)N[C@@H](C)C(=O)N[C@@H](CCCNC(=N)N)C(=O)N[C@@H](C)C(=O)N[C@@H](CCCNC(=N)N)C(=O)N[C@@H](C)C(=O)N[C@@H](C)C(=O)N[C@@H](CCCNC(=N)N)C(=O)N[C@@H](CCC(=O)O)C(=O)N[C@@H](CCC(N)=O)C(=O)N[C@@H](C)C(=O)N[C@H](C(=O)N[C@H](C(=O)N[C@@H](CC(N)=O)C(=O)N[C@@H](C)C(=O)N[C@@H](CCCNC(=N)N)C(=O)N[C@H](C(=O)N[C@@H](CC(C)C)C(=O)N[C@@H](C)C(=O)N[C@@H](CCCNC(=N)N)C(=O)N[C@H](C(N)=O)C(C)C)[C@@H](C)CC)[C@@H](C)O)[C@@H](C)O)[C@@H](C)CC)[C@@H](C)CC)C(C)C)C(C)C` [SEQ ID NO: 53, reference compound] the EC50 [1] was over 1e+07 pM, the EC50 (human CRHR2) was 24.5 ± 1.6 pM and the EC50 (human CRHR1) was over 1e+07 pM.
